Assay results published in US9346798B2, “Dihydrobenzoxazine and tetrahydroquinoxaline sodium channel inhibitors” (AMGEN INC., priority 2012, dated 2016).

By UniProt entry, the sequences of proteins in these tests, tags left out.
UniProt Q15858, whole entry: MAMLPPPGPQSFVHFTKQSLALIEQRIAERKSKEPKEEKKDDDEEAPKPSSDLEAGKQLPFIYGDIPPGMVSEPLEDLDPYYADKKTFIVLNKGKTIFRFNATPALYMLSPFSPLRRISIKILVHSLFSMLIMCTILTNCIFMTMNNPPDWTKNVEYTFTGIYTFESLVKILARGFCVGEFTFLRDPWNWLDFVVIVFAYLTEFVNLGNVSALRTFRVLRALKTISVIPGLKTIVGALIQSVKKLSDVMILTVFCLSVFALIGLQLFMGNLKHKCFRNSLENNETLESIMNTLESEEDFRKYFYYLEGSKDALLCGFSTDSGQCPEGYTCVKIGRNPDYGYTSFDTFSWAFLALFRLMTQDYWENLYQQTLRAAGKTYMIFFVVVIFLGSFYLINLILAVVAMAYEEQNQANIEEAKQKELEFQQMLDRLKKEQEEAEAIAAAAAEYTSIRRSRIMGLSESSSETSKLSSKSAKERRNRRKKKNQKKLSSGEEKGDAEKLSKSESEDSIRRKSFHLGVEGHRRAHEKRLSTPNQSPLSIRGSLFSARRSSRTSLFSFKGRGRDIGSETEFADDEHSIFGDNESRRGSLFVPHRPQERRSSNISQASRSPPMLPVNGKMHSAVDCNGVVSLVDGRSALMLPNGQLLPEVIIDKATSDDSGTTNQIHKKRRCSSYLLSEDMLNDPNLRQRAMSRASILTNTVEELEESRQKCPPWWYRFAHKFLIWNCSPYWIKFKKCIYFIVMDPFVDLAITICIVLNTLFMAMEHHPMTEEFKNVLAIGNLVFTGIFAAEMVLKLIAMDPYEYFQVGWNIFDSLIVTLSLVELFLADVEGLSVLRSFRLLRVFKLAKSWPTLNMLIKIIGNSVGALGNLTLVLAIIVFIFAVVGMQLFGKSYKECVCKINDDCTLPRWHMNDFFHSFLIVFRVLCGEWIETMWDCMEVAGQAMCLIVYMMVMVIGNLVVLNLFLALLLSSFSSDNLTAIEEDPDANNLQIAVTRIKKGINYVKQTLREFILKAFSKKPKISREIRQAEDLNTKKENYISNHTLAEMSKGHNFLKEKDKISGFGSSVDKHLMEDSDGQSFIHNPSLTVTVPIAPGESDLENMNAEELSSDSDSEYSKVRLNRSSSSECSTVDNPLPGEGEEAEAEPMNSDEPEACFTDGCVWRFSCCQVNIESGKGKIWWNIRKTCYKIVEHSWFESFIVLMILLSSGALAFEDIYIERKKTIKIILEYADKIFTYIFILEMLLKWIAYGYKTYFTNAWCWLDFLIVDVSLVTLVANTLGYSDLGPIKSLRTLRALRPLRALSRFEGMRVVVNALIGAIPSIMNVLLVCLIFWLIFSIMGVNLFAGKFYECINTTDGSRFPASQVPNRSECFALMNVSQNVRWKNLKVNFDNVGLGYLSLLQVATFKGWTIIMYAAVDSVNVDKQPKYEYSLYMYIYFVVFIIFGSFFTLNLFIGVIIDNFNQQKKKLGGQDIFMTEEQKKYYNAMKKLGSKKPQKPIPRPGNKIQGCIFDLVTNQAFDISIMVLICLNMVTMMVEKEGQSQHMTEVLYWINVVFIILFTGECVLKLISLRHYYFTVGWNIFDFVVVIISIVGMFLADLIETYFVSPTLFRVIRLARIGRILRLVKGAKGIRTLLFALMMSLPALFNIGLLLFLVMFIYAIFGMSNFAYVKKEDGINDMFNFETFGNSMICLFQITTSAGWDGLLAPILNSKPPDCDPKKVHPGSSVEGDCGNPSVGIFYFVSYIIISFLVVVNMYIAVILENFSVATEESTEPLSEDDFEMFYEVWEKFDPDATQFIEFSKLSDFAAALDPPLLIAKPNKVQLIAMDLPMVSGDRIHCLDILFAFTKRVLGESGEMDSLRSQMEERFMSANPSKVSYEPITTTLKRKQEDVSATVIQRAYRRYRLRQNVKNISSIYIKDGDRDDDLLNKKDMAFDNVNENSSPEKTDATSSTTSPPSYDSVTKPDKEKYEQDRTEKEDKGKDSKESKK

Assays:
Nav 1.7 [1] = target: T1, Nav 1.7 (Homo sapiens (Human), UniProt Q15858); test: Nav 1.7 in vitro PX assay, PatchXpress whole cell voltage clamp; assay type: cell-based; conditions: HEK 293 cells stably transfected with human Nav1.7; partially inactivated state (20 to 50% inactivation)
Method: Nav 1.7 In Vitro PX Assay
HEK 293 cells stably transfected with human Nav1.7 were recorded in whole cell voltage clamp mode with the PatchXpress automated electrophysiology system (Molecular Devices, LLC, Sunnyvale, Calif.). Compound effects were measured on a partially inactivated state of the sodium channel. Cells were clamped to a holding potential yielding 20 to 50% inactivation. To elicit sodium current, channels were activated by pulsing to −10 mV for 20 msec. This voltage protocol was repeated at a rate of 0.1 Hz throughout the experiment. A single concentration of test compound was applied to cells for a duration of 3 minutes. Peak sodium current was measured at the end of the compound addition period to determine percent inhibition. Three to five cells were tested per concentration, and IC50 curves were fitted to percent inhibition as a function of concentration.

Nav 1.7 [2] = target: T1, Nav 1.7; test: Nav 1.7 in vitro assay, IonWorks Quattro (IWQ) population patch-clamp; assay type: cell-based; conditions: HEK 293 cells stably transfected with Nav 1.7; 26th pulse to -20 mV
Method: Nav 1.7 and Nav 1.5 In Vitro Assays
HEK 293 cells stably transfected with either Nav 1.7 or with Nav 1.5 were recorded in population patch-clamp mode with the IonWorks® Quattro automated electrophysiology system in accordance with the manufacturer's specifications (Molecular Devices, LLC, Sunnyvale, Calif.). Sodium channel currents were measured in response to a train of depolarizations that induced successively greater inactivation.
Cells were held at −110 mV for three seconds (Nav 1.7) or half a second (Nav 1.5) from a holding voltage of −15 mV, then put through a series of 26 pulses of 150 msec duration to −20 mV at a frequency of 5 Hz. Cells were then left unclamped for a period of 3 to 8 minutes while a single concentration of test compound was added. Cells were then reclamped and put through the same voltage protocol. Current at the end of the 26th pulse to −20 mV was subtracted from the peak current evoked by the 26th pulse to −20 mV to correct for leak current. Percent block was calculated for each concentration in duplicate, and IC50 curves were fitted to percent block as a function of concentration.

IC50 (Nav 1.7 [1])	IC50 (Nav 1.7 [2])	Structure (SMILES)
1220 nM	75.3 nM	N#Cc1ccc(F)cc1N1CCOc2cc(S(=O)(=O)Nc3nccs3)ccc21 [Example 188, 4-(2-Cyano-5-Fluorophenyl)-N-(Thiazol-2-Yl)-3,4-Dihydro-2H-Benzo[B][1,4]Oxazine-7-Sulfonamide]
79.4 nM	13 nM	O=S(=O)(Nc1nccs1)c1ccc2c(c1)OCCN2c1ccc(C(F)(F)F)cc1C1=CCNCC1 [Example 38, 4-(2-(1,2,3,6-Tetrahydropyridin-4-Yl)-4-(Trifluoromethyl)Phenyl)-N-(Thiazol-2-Yl)-3,4-Dihydro-2H-Benzo[B][1,4]Oxazine-7-Sulfonamide 2,2,2-Trifluoroacetate]
